Target: human CD47 on cells (human) (UniProt Q08722)
Test: flow cytometry on human erythrocytes

Q: positive control antibody Hu5F9 was tested. Which EC50 did it give?
A: Its EC50 is 1.95 µg/mL.

Q: What about the plateau of the same substance?
A: The plateau was 892.

Source: patent US20230167192A1 (SUZHOU ZELGEN BIOPHARMACEUTICALS, published 2023)
